Measurements published in US9743646B2, “Method of establishing isogenic multi-xenograft model and the use thereof” (Crown Bioscience Inc. (Taicang), priority 2014, dated 2017).

System: SW48-parental xenograft (HD PAR-006, KRAS WT)
Experiment: Tumor volume of SW48-parental xenograft in isogenic dual-xenograft mice
Type: in vivo, Nude mice
Settings: Cetuximab 0.5 mg/mouse i.p. twice per week, 2 wks, vs saline
Experimental: The SW48 series colorectal adenocarcinoma cells were obtained from Horizon Discovery Ltd (see below in Table 1 for Catalogue number details), and maintained in vitro as a monolayer culture in McCoy's 5A medium supplemented with 10% heat inactivated fetal bovine serum, 2 mM L-glutamine, with or without G418, at 37° C. in an atmosphere of 5% CO2 in air. The tumor cells were routinely subcultured every 3-5 days by trypsin-EDTA treatment. Cells growing in an exponential growth phase were harvested and counted for tumor inoculation. HD 103-002 cell line was derived from parental SW48 cell line HD PAR-006 with heterozygous knock-in of KRAS activating mutation-G13D; HD 103-007 cell line was derived from parental SW48 cell line HD PAR-006 with heterozygous knock-in of KRAS activating mutation-G12V. […]
The major endpoint was to evaluate the tumor growth. Tumor sizes were measured twice weekly in two dimensions using a caliper, and the volume were expressed in mm3 using the formula: V=0.5 a×b^2, where a and b are the long and short diameters of the tumor, respectively.

Cetuximab
effect on tumor volume of the SW48-parental xenograft (FIG. 2A) (dual model with SW48-KRAS (G12V/+)): reduced
effect on tumor volume of the SW48-parental xenograft (FIG. 1A) (dual model with SW48-KRAS (G13D/+)): significantly reduced
